Results: ChEMBL document CHEMBL3769345, “Rapid Synthesis of Boc-2',6'-dimethyl-l-tyrosine and Derivatives and Incorporation into Opioid Peptidomimetics” (ACS Med Chem Lett, 2015)
Active and inactive are the calls of the source. The calls are words filed in the database; no cut-off is given here.

Sequences of proteins named here, by UniProt entry; tags and fusion partners are left off.
UniProt P33533, whole entry: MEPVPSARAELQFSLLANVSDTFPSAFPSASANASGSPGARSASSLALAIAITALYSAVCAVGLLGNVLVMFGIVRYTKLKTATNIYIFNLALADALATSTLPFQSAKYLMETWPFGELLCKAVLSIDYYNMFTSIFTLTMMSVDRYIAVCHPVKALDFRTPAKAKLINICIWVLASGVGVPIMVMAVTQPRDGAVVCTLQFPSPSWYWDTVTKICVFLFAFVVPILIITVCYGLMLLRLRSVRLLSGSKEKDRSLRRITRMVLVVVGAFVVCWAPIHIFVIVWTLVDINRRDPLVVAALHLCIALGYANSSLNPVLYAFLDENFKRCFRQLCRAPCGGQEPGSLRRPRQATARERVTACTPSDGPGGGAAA

Molecular target: Delta-type opioid receptor (Rattus norvegicus) (UniProt P33533)
Experiment: Agonist activity at rat DOR expressed in rat C6 cells at 10 uM after 1 hr by [35S]GTPgammaS binding assay relative to DPDPE
Assay type: functional, cell-based

SMILES | max activation
Cc1cccc(C)c1C[C@H](N)C(=O)N[C@@H]1CCNc2ccc(Cc3ccccc3)cc21 | inactive
Cc1cc(O)ccc1C[C@H](N)C(=O)N[C@@H]1CCNc2ccc(Cc3ccccc3)cc21 | inactive
